Chains of the proteins cited; added tags and fusions are not shown. Residues count along the entry.
UniProt P25774, 115-331: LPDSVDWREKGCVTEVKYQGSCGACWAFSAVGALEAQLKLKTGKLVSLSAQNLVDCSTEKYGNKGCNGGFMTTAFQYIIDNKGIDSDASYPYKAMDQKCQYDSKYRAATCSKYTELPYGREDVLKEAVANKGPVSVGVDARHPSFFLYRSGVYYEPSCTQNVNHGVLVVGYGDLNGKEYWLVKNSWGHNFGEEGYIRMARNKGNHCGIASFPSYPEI

In patent publication US20090099157A1, “TETRAHYDRO-PYRAZOLO-PYRIDINE THIOETHER MODULATORS OF CATHEPSIN S” (priority 2007, published 2009):

Molecular target: Recombinant human cathepsin S (CatS) (Homo sapiens, UniProt P25774)
Assay: biochemical

IC50	Compound
200 nM	COc1ccccc1C1CCN(CC(O)Cn2nc(-c3ccc(C(F)(F)F)c(SCCN4CCCCC4)c3)c3c2CCN(C)C3)CC1 (centres unmarked) [Example 541, 1-{4-[2-(Methyloxy)phenyl]piperidin-1-yl}-3-(5-methyl-3-{3-[(2-piperidin-1-ylethyl)sulfanyl]-4-(trifluoromethyl)phenyl}-4,5,6,7-tetrahydro-1H-pyrazolo[4,3-c]pyridin-1-yl)propan-2-ol]
10 nM	COc1ccccc1C1CCN(CC(O)Cn2nc(-c3ccc(C(F)(F)F)c(SCC(=O)N4CCOCC4)c3)c3c2CCN(C(=O)CO)C3)CC1 (centres unmarked) [Example 275, 1-[5-(Hydroxyacetyl)-3-{3-[(2-morpholin-4-yl-2-oxoethyl)sulfanyl]-4-(trifluoromethyl)phenyl}-4,5,6,7-tetrahydro-1H-pyrazolo[4,3-c]pyridin-1-yl]-3-{4-[2-(methyloxy)phenyl]piperidin-1-yl}propan-2-ol]
280 nM	CS(=O)(=O)N1CCc2c(c(-c3ccc(C(F)(F)F)c(SCC(=O)N4CC[C@@H](O)C4)c3)nn2CC(O)CN2CCCCC2)C1 (stereo partly drawn) [Example 390, (3R)-1-[({5-[1-(2-Hydroxy-3-piperidin-1-ylpropyl)-5-(methylsulfonyl)-4,5,6,7-tetrahydro-1H-pyrazolo[4,3-c]pyridin-3-yl]-2-(trifluoromethyl)phenyl}sulfanyl)acetyl]pyrrolidin-3-ol]
280 nM	CS(=O)(=O)N1CCc2c(c(-c3ccc(C(F)(F)F)c(SCC(=O)N4CCC(CCc5ccccc5)CC4)c3)nn2CCCN2CCC(N3CCCC3=O)CC2)C1 [Example 105, 1-{1-[3-(5-Methanesulfonyl-3-{3-[2-oxo-2-(4-phenethyl-piperidin-1-yl)-ethylsulfanyl]-4-trifluoromethyl-phenyl}-4,5,6,7-tetrahydro-pyrazolo[4,3-c]pyridin-1-yl)-propyl]-piperidin-4-yl}-pyrrolidin-2-one]
2410 nM	COC1CCN(CC(O)Cn2nc(-c3ccc(C(F)(F)F)c(SCC(=O)N4CCCC4)c3)c3c2CCNC3)CC1 (centres unmarked) [Example 302, 1-[4-(Methyloxy)piperidin-1-yl]-3-(3-{3-[(2-oxo-2-pyrrolidin-1-ylethyl)sulfanyl]-4-(trifluoromethyl)phenyl}-4,5,6,7-tetrahydro-1H-pyrazolo[4,3-c]pyridin-1-yl)propan-2-ol]
480 nM	CS(=O)(=O)N1CCc2c(c(-c3ccc(C(F)(F)F)c(SCCN4CCC(F)CC4)c3)nn2CC(O)CN2CC[C@@H](O)C2)C1 (stereo partly drawn) [Example 414, (3R)-1-(3-{3-[3-{[2-(4-Fluoropiperidin-1-yl)ethyl]sulfanyl}-4-(trifluoromethyl)phenyl]-5-(methylsulfonyl)-4,5,6,7-tetrahydro-1H-pyrazolo[4,3-c]pyridin-1-yl}-2-hydroxypropyl)pyrrolidin-3-ol]
230 nM	CC(C)(C)OC(=O)N1CCC(C(=O)NCCSc2cc(-c3nn(CC(O)CN4CCC(N5CCCC5=O)CC4)c4c3CN(S(C)(=O)=O)CC4)ccc2C(F)(F)F)C1 (centres unmarked) [Example 123, 3-{2-[5-(1-{2-Hydroxy-3-[4-(2-oxo-pyrrolidin-1-yl)-piperidin-1-yl]-propyl}-5-methanesulfonyl-4,5,6,7-tetrahydro-1H-pyrazolo[4,3-c]pyridin-3-yl)-2-trifluoromethyl-phenylsulfanyl]-ethylcarbamoyl}-pyrrolidine-1-carboxylic acid tert-butyl ester]
600 nM	COC(=O)C(=O)N1CCc2c(c(-c3ccc(C(F)(F)F)c(SCCN4CCOCC4)c3)nn2CC(O)CN2CCCCC2)C1 (centres unmarked) [Example 243, Methyl[1-(2-hydroxy-3-piperidin-1-ylpropyl)-3-{3-[(2-morpholin-4-ylethyl)sulfanyl]-4-(trifluoromethyl)phenyl}-1,4,6,7-tetrahydro-5H-pyrazolo[4,3-c]pyridin-5-yl](oxo)acetate]
560 nM	CC1CCCN1CCSc1cc(-c2nn(CCCN3CCC(N4CCCC4=O)CC3)c3c2CN(S(C)(=O)=O)CC3)ccc1C(F)(F)F (centres unmarked) [Example 28, 1-{1-[3-(5-Methanesulfonyl-3-{3-[2-(2-methyl-pyrrolidin-1-yl)-ethylsulfanyl]-4-trifluoromethyl-phenyl}-4,5,6,7-tetrahydro-pyrazolo[4,3-c]pyridin-1-yl)-propyl]-piperidin-4-yl}-pyrrolidin-2-one]
1820 nM	O=C(C1CCN(CC(O)Cn2nc(-c3ccc(C(F)(F)F)c(SCCN4CCCCC4)c3)c3c2CCNC3)CC1)N1CCCC1 (centres unmarked) [Example 411, 1-(3-{3-[(2-Piperidin-1-ylethyl)sulfanyl]-4-(trifluoromethyl)phenyl}-4,5,6,7-tetrahydro-1H-pyrazolo[4,3-c]pyridin-1-yl)-3-[4-(pyrrolidin-1-ylcarbonyl)piperidin-1-yl]propan-2-ol]
610 nM	CS(=O)(=O)N1CCc2c(c(-c3ccc(C(F)(F)F)c(SCCN4CCCC(CO)C4)c3)nn2CC(O)CN2CCCCC2)C1 (centres unmarked) [Example 457, 1-{3-[3-({2-[3-(Hydroxymethyl)piperidin-1-yl]ethyl}sulfanyl)-4-(trifluoromethyl)phenyl]-5-(methylsulfonyl)-4,5,6,7-tetrahydro-1H-pyrazolo[4,3-c]pyridin-1-yl}-3-piperidin-1-ylpropan-2-ol]
1470 nM	CS(=O)(=O)N1CCc2c(c(-c3ccc(Cl)c(SCCc4ccccc4)c3)nn2CCCN2CCOCC2)C1 [Example 129, 3-(4-Chloro-3-phenethylsulfanyl-phenyl)-5-methanesulfonyl-1-(3-morpholin-4-yl-propyl)-4,5,6,7-tetrahydro-1H-pyrazolo[4,3-c]pyridine]
730 nM	CS(=O)(=O)N1CCc2c(c(-c3ccc(C(F)(F)F)c(SCCNCCC4=CCCCC4)c3)nn2CCCN2CCC(N3CCCC3=O)CC2)C1 [Example 46, 1-{1-[3-(3-{3-[2-(2-Cyclohex-1-enyl-ethylamino)-ethylsulfanyl]-4-trifluoromethyl-phenyl}-5-methanesulfonyl-4,5,6,7-tetrahydro-pyrazolo[4,3-c]pyridin-1-yl)-propyl]-piperidin-4-yl}-pyrrolidin-2-one]
770 nM	CN1CCN(C(=O)CSc2cc(-c3nn(CCCN4CCC(N5CCCC5=O)CC4)c4c3CN(S(C)(=O)=O)CC4)ccc2C(F)(F)F)CC1 [Example 103]
20 nM	CS(=O)(=O)N1CCc2c(c(-c3ccc(C(F)(F)F)c(SCC(=O)N4CCOCC4)c3)nn2CC(O)CN2CCC(c3ccncc3)CC2)C1 (centres unmarked) [Example 714, 1-[5-(Methylsulfonyl)-3-{3-[(2-morpholin-4-yl-2-oxoethyl)sulfanyl]-4-(trifluoromethyl)phenyl}-4,5,6,7-tetrahydro-1H-pyrazolo[4,3-c]pyridin-1-yl]-3-(4-pyridin-4-ylpiperidin-1-yl)propan-2-ol]
55 nM	CS(=O)(=O)N1CCc2c(c(-c3ccc(C(F)(F)F)c(SCCN4CCOC(CO)C4)c3)nn2CC(O)CN2CCC(O)(c3ccccn3)CC2)C1 (centres unmarked) [Example 844, 1-(2-Hydroxy-3-{3-[3-({2-[2-(hydroxymethyl)morpholin-4-yl]ethyl}sulfanyl)-4-(trifluoromethyl)phenyl]-5-(methylsulfonyl)-4,5,6,7-tetrahydro-1H-pyrazolo[4,3-c]pyridin-1-yl}propyl)-4-pyridin-2-ylpiperidin-4-ol]
680 nM	CN(C)CC(=O)N1CCc2c(c(-c3ccc(C(F)(F)F)c(SCCN4CCC(F)CC4)c3)nn2CC(O)CN2CCCCC2)C1 (centres unmarked) [Example 433, 1-{5-(N,N-Dimethylglycyl)-3-[3-{[2-(4-fluoropiperidin-1-yl)ethyl]sulfanyl}-4-(trifluoromethyl)phenyl]-4,5,6,7-tetrahydro-1H-pyrazolo[4,3-c]pyridin-1-yl}-3-piperidin-1-ylpropan-2-ol]
490 nM	CS(=O)(=O)N1CCc2c(c(-c3ccc(C(F)(F)F)c(SCCN4CCC(O)C4)c3)nn2CCCN2CCC(N3CCCC3=O)CC2)C1 (centres unmarked) [Example 43, 1-{1-[3-(3-{3-[2-(3-Hydroxy-pyrrolidin-1-yl)-ethylsulfanyl]-4-trifluoromethyl-phenyl}-5-methanesulfonyl-4,5,6,7-tetrahydro-pyrazolo[4,3-c]pyridin-1-yl)-propyl]-piperidin-4-yl}-pyrrolidin-2-one]
20 nM	CS(=O)(=O)N1CCc2c(c(-c3ccc(C(F)(F)F)c(SCC(=O)N4CCCCC4)c3)nn2CC(O)CN2CCN(c3ccccc3C#N)CC2)C1 (centres unmarked) [Example 821, 2-(4-{2-Hydroxy-3-[5-(methylsulfonyl)-3-{3-[(2-oxo-2-piperidin-1-ylethyl)sulfanyl]-4-(trifluoromethyl)phenyl}-4,5,6,7-tetrahydro-1H-pyrazolo[4,3-c]pyridin-1-yl]propyl}piperazin-1-yl)benzonitrile]
1560 nM	O=C(CSc1cc(-c2nn(CC(O)CN3Cc4ccccc4C3)c3c2CNCC3)ccc1C(F)(F)F)N1CCCC1 (centres unmarked) [Example 305, 1-(1,3-Dihydro-2H-isoindol-2-yl)-3-(3-{3-[(2-oxo-2-pyrrolidin-1-ylethyl)sulfanyl]-4-(trifluoromethyl)phenyl}-4,5,6,7-tetrahydro-1H-pyrazolo[4,3-c]pyridin-1-yl)propan-2-ol]
25 nM	CS(=O)(=O)N1CCc2c(c(-c3ccc(C(F)(F)F)c(SCCN4CCCC4)c3)nn2CC(O)CN2CCC(c3ncccc3Cl)CC2)C1 (centres unmarked) [Example 743, 1-[4-(3-Chloropyridin-2-yl)piperidin-1-yl]-3-[5-(methylsulfonyl)-3-{3-[(2-pyrrolidin-1-ylethyl)sulfanyl]-4-(trifluoromethyl)phenyl}-4,5,6,7-tetrahydro-1H-pyrazolo[4,3-c]pyridin-1-yl]propan-2-ol]
140 nM	CC1(C)CCN(C[C@H](O)Cn2nc(-c3ccc(C(F)(F)F)c(SCCN4CCCC(F)(F)C4)c3)c3c2CCN(S(C)(=O)=O)C3)CC1 [Example 623, (2S)-1-{3-[3-{[2-(3,3-Difluoropiperidin-1-yl)ethyl]sulfanyl}-4-(trifluoromethyl)phenyl]-5-(methylsulfonyl)-4,5,6,7-tetrahydro-1H-pyrazolo[4,3-c]pyridin-1-yl}-3-(4,4-dimethylpiperidin-1-yl)propan-2-ol]
410 nM	COc1ccccc1N1CCN(C[C@H](O)Cn2nc(-c3ccc(C(F)(F)F)c(SCCN4CCC(F)CC4)c3)c3c2CCNC3)CC1 [Example 567, (2S)-1-{3-[3-{[2-(4-Fluoropiperidin-1-yl)ethyl]sulfanyl}-4-(trifluoromethyl)phenyl]-4,5,6,7-tetrahydro-1H-pyrazolo[4,3-c]pyridin-1-yl}-3-{4-[2-(methyloxy)phenyl]piperazin-1-yl}propan-2-ol]
